Sequences of proteins named here, by UniProt entry; tags and fusion partners are left off.
UniProt P21397, whole entry: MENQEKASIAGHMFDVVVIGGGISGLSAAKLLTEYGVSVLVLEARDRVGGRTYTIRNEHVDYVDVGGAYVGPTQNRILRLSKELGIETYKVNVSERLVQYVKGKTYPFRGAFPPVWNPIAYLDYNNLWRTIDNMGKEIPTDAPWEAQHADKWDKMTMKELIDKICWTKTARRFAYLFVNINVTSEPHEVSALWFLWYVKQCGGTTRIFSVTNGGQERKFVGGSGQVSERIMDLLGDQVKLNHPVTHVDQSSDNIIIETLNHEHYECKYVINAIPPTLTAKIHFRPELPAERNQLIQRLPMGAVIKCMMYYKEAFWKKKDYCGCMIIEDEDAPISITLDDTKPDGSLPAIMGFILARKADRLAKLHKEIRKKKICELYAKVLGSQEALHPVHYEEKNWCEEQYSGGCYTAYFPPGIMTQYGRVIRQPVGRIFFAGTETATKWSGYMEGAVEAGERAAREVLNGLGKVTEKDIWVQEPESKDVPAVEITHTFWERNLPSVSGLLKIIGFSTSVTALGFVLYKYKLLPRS
UniProt P27338, whole entry: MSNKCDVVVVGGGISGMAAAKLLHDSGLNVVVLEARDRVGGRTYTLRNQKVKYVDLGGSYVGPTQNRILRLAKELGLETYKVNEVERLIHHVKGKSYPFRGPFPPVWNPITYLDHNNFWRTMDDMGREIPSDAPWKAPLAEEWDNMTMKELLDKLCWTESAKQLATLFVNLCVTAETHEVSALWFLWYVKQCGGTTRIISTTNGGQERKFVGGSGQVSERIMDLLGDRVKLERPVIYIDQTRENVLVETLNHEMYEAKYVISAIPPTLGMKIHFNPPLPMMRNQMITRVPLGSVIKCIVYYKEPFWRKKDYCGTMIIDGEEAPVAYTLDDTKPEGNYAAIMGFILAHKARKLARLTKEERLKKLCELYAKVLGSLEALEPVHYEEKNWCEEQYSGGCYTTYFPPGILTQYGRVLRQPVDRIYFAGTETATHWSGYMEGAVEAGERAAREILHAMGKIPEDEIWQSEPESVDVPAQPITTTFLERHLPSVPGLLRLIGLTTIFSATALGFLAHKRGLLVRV

According to US8987335B2, “Substituted (E)-N′-(1-phenylethylidene)benzohydrazide analogs as histone demethylase inhibitors” (University of Utah Research Foundation, priority 2011, dated 2015):

Assays:
MAO A = MAO A (Homo sapiens (Human), UniProt P21397); experiment: Monoamine Oxidase assay (MAO-Glo), MAO A; type: biochemical
MAO B = MAO B (Homo sapiens (Human), UniProt P27338); experiment: Monoamine Oxidase assay (MAO-Glo), MAO B; type: biochemical

## C/C(=N\NC(=O)c1cccc(S(=O)(=O)N(C)C)c1)c1cc(Cl)ccc1O [Compound 18, (E)-3-(2-(1-(5-chloro-2-hydroxyphenyl)ethylidene)hydrazinecarbonyl)-N,N-dimethylbenzenesulfon-amide]
MAO A
  IC50: > 300 µM
MAO B
  IC50: > 300 µM
